Test results reported in PubChem BioAssay.
Only a part is listed here, and it is no random draw. The list shows a part of the results. The source made the active and inactive calls.

Protein sequences, listed by entry. Tags and fused reporters are not part of them. Lines headed by an entry give the natural chain unless they say otherwise; changes in a name come on top.
UniProt P98170, whole entry, looked up: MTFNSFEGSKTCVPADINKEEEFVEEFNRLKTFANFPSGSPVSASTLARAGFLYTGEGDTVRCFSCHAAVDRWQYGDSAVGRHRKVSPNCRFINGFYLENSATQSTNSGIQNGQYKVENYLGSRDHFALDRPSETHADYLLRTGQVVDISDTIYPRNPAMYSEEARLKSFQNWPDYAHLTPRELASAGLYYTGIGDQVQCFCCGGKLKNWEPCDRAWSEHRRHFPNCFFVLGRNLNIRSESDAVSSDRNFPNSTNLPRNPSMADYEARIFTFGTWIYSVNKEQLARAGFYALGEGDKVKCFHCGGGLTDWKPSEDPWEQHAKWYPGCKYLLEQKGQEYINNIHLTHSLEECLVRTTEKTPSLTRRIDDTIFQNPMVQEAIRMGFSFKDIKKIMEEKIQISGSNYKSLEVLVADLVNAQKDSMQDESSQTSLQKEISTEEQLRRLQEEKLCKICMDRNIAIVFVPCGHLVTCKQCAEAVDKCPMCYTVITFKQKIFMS
UniProt Q62424: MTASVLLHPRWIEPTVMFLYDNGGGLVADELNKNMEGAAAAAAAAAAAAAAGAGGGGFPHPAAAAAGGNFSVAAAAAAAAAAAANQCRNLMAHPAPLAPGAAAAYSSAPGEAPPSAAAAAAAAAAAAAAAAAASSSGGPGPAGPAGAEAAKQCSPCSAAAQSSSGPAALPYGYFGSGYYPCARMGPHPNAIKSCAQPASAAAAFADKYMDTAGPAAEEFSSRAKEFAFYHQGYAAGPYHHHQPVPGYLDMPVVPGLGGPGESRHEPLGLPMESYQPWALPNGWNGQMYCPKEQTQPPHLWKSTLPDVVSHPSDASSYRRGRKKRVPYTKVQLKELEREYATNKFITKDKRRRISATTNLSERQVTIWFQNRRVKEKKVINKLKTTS

Tests used:
[1] = MM1S cell viability effects, profiling panel, calcein-AM fluorescence, 48 h, basal (AID 1165); conditions: higher = more signal;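 further: viability of MM1S multiple myeloma cells under basal unstimulated conditions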
[2] = basal RPMI8226 viability, no added stimulus, profiling panel, cell-based, calcein-AM fluorescence, 48 h, PK04 Diversity Set (AID 1166); conditions: RPMI8226 myeloma viability, higher = more signal;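 further: cells grown under basal conditions without added stimulus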
[3] = basal HepG2 mitochondrial membrane potential changes, profiling panel, cell-based, JC-1 fluorescence, 24 h, 100 nL compound (AID 1167); conditions: higher = more signal
[4] = basal 3T3-L1 adipocyte mitochondrial potential changes, profiling panel, cell-based, JC-1 fluorescence, 3T3-L1 adipocytes, 24 h, 100 nL compound (AID 1168); conditions: JC-1 mitochondrial fluorescence, higher = more signal, called active from +8 up or from −8 down
[5] = basal RPMI8226 mitochondrial membrane potential changes, profiling panel, cell-based, JC-1 fluorescence, 24 h, 100 nL compound (AID 1169); conditions: RPMI8226 myeloma, JC-1 mitochondrial potential fluorescence, higher = more signal
[6] = basal MM1S mitochondrial membrane potential changes, profiling panel, cell-based, JC-1 fluorescence, 24 h, 100 nL compound (AID 1170); conditions: higher = more signal
[7] = A549 lung cancer cell viability effects, profiling panel, resazurin fluorescence, 24 h, PK04 Diversity Set (AID 1171); conditions: higher = more signal, called active from +8 up or from −8 down
[8] = HepG2 liver cancer cell viability effects, profiling panel, resazurin fluorescence, 24 h, PK04 Diversity Set (AID 1172); conditions: higher = more signal
[9] = basal S. cerevisiae growth modulation, no modifier, primary screen, OD600, strain BY4716, 24 h, basal condition (AID 1173); conditions: OD600, 24 h, higher = more signal, called active from +8 up or from −8 down
[10] = MM1S myeloma cell viability, profiling panel, resazurin fluorescence, basal, 24 h, PK04 Diversity Set (AID 1174); conditions: higher = more signal, called active from +8 up or from −8 down;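 further: MM1S multiple myeloma cell line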
[11] = S. cerevisiae RM11-1a growth modifiers, primary screen, strain RM11-1a, OD600, basal, 24 h (AID 1177); conditions: OD600, 24 h, higher = more signal, called active from +8 up or from −8 down;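 further: cultures grown under basal conditions with no added stressor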
[12] = RPMI8226 myeloma cell viability, profiling panel, resazurin fluorescence, basal, 24 h, PK04 Diversity Set (AID 1180); conditions: higher = more signal;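 further: RPMI8826 multiple myeloma cell line at 5000 cells per well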
[13] = biological target: E3 ubiquitin-protein ligase XIAP (Homo sapiens) (UniProt P98170); test: XIAP binders, primary screen, biophysical, small-molecule microarray, fluorescence 635 nm (AID 1181); conditions: small-molecule microarray binding, higher = more signal;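 further: score merges 667 nm emission and signal to noise over triplicate slides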
[14] = tested on: XIP peptide (Xip251-270) binding; test: small-molecule binders of XIP peptide, primary screen, biochemical, small-molecule microarray, fluorescence 635/667 nm, 0.1 µg/mL protein (AID 1182); conditions: fluorescent protein binding, 635 nm, higher = more signal, called active from +8 up or from −8 down
XIP peptide (Xip251-270) = test: small-molecule binders of XIP peptide, primary screen, biochemical, small-molecule microarray, fluorescence 635/667 nm, 0.5 µg/mL protein (AID 1183); conditions: small-molecule microarray binding, fluorescence 635 nm; higher = more signal
[15] = biological target: Homeobox protein Hox-A13 (Mus musculus) (UniProt Q62424); test: inhibitors of HoxA13-DNA binding, primary screen, biochemical, fluorescence polarization, labeled oligonucleotide (AID 1185); conditions: 15 min, higher = more signal, called active from +8 up or from −8 down

SMILES | z-score [1] | z-score [2] | z-score [3] | z-score [4] | z-score [5] | z-score [6] | z-score [7] | z-score [8] | z-score [9] | z-score [10] | z-score [11] | z-score [12] | composite z-score [13] | composite z-score [14] | composite z-score (XIP peptide (Xip251-270)) | z-score [15]
O=P(/N=C1/CC(CCCO)=CC(c2ccc(CN3CCCC3)cc2)N1Cc1sc2ccccc2c1Cl)(Oc1ccccc1)Oc1ccccc1 (stereo not given) | -3.25 | -3.96 | 2.75 | inactive: -2.11 | -0.79 | -2.07 | inactive: 1.04 | -0.332 | inactive: -6.56 | inactive: -2.54 | inactive: -1.43 | -2.06 | -0.0114 | inactive: 0.121 | 0.369 | inactive: -2.94
O=P(/N=C1/CC(c2ccc(CO)cc2)=CC(C2CC2)N1Cc1sc2ccccc2c1Cl)(Oc1ccccc1)Oc1ccccc1 (stereo not given) | -1.95 | -3.46 | 0.792 | inactive: -0.518 | -0.822 | -0.149 | inactive: -1.71 | -0.0412 | inactive: -4.28 | inactive: -2.97 | inactive: 0.144 | -2.55 | 0.344 | inactive: 0.227 | 0.671 | inactive: 0.55
CN1/C(=N\P(=O)(Oc2ccccc2)Oc2ccccc2)CC(c2ccc(CO)cc2)=CC1c1cccs1 (stereo not given) | 0.844 | 1.01 | -1.17 | inactive: 0.727 | -0.15 | 1.32 | inactive: 0.569 | 0.209 | inactive: -0.942 | inactive: 0.999 | inactive: 0.91 | 1.35 | 0.0003 | inactive: 1.01 | 0.158 | inactive: -2.59
COP(=O)(/N=C1/CC(CCCO)=CC(c2ccc(CN3CCCC3)cc2)N1Cc1sc2ccccc2c1Cl)OC (stereo not given) | -2.41 | 0.929 | 2.71 | inactive: 1.2 | -0.539 | 0.017 | inactive: 0.702 | 0.0636 | inactive: -2.8 | inactive: 0.31 | inactive: 0.145 | 0.19 | 0.0108 | inactive: 0.356 | 0.928 | inactive: -2.19
COP(=O)(/N=C1/CC(CCCO)=CC(C2CC2)N1Cc1sc2ccccc2c1Cl)OC (stereo not given) | -2.74 | -2.35 | 1.26 | inactive: 1.08 | -0.449 | -0.603 | inactive: 0.026 | 0.0405 | active: -11.1 | inactive: -0.0498 | inactive: 0.219 | -0.0924 | 0.287 | inactive: 0.615 | 0.297 | inactive: -4.46
CN1/C(=N\P(=O)(Oc2ccccc2)Oc2ccccc2)CC(c2ccc(CO)cc2)=CC1C1CC1 (stereo not given) | 0.88 | 1.22 | 1.93 | inactive: 0.644 | -0.127 | 1.65 | inactive: 0.959 | 0.65 | inactive: -1.19 | inactive: 1.09 | inactive: -0.906 | 0.743 | 0.0156 | inactive: 0.172 | 0.0274 | inactive: -4.45
COP(=O)(/N=C1/CC(CCCO)=CC(C2CC2)N1C)OC (stereo not given) | 0.927 | 0.596 | 1.41 | inactive: 0.625 | -0.628 | -0.154 | inactive: -0.821 | -0.474 | inactive: -0.769 | inactive: 0.235 | inactive: -2.11 | 0.098 | 0.411 | inactive: -0.21 | 0.0312 | inactive: -2.81
O=P(/N=C1/CC(CCCO)=CC(C2CC2)N1Cc1cc2c(cc1Br)OCO2)(Oc1ccccc1)Oc1ccccc1 (stereo not given) | -1.85 | -0.928 | 0.661 | inactive: -0.555 | 0.47 | 0.634 | inactive: 0.262 | 0.0544 | inactive: -2.24 | inactive: -0.362 | inactive: -0.11 | 0.0857 | -0.327 | inactive: 0.722 | 0.577 | inactive: -6.42
O=P(/N=C1/CC(CCCO)=CC(c2ccc(CN3CCCC3)cc2)N1Cc1cc2c(cc1Br)OCO2)(Oc1ccccc1)Oc1ccccc1 (stereo not given) | -0.29 | -0.195 | 0.396 | inactive: -0.499 | 1.21 | -0.367 | inactive: 0.65 | 0.572 | inactive: -0.607 | inactive: 0.101 | inactive: -0.529 | -0.253 | -0.0172 | inactive: 1.24 | 0.595 | inactive: -2.59
O=P(/N=C1/CC(c2ccc(CO)cc2)=CC(c2cccs2)N1Cc1cccc(OC(F)(F)F)c1)(Oc1ccccc1)Oc1ccccc1 (stereo not given) | -3.27 | -3.69 | -3.74 | inactive: 0.0427 | -0.841 | -0.31 | inactive: 0.422 | -0.373 | inactive: -2.83 | inactive: -1.21 | inactive: 0.171 | -1.4 | -0.0476 | inactive: 1.24 | 0.542 | inactive: -2.62
O=P(/N=C1/CC(CCCO)=CC(C2CC2)N1Cc1cccc(OC(F)(F)F)c1)(Oc1ccccc1)Oc1ccccc1 (stereo not given) | -0.476 | -1.89 | 0.49 | inactive: -0.597 | -0.573 | 0.549 | inactive: 0.0075 | 0.31 | inactive: -0.828 | inactive: 0.207 | inactive: 0.27 | -0.413 | 0.193 | inactive: 0.975 | -0.489 | inactive: -5.28
O=P(/N=C1/CC(CCCO)=CC(C2CC2)N1Cc1sc2ccccc2c1Cl)(Oc1ccccc1)Oc1ccccc1 (stereo not given) | -2 | -1.68 | 0.0903 | inactive: 1.21 | -0.595 | -0.16 | inactive: -1.52 | -0.573 | inactive: -4.33 | inactive: -1.04 | inactive: 1.08 | -0.924 | 0.0605 | inactive: 0.0895 | 0.729 | inactive: -3.86
CC1C=C(CCCO)C/C(=N/P(=O)(Oc2ccccc2)Oc2ccccc2)N1Cc1cccc(OC(F)(F)F)c1 (stereo not given) | -0.39 | -1.2 | 0.216 | inactive: 0.543 | 1.68 | 1.49 | inactive: -1.21 | -0.955 | inactive: -1.95 | inactive: -0.681 | inactive: 0.311 | -0.816 | 0.133 | inactive: -0.416 | -0.217 | inactive: -4.93
COP(=O)(/N=C1/CC(c2ccc(CO)cc2)=CC(c2cccs2)N1C)OC (stereo not given) | 0.606 | 0.7 | -0.199 | inactive: -0.103 | 0.176 | -0.651 | inactive: -0.272 | -0.632 | inactive: -2.15 | inactive: -0.608 | inactive: 0.599 | 0.289 | 0.0825 | inactive: -0.0538 | -0.378 | inactive: -3.41
O=P(/N=C1/CC(CCCO)=CC(c2cccs2)N1Cc1cccc(OC(F)(F)F)c1)(Oc1ccccc1)Oc1ccccc1 (stereo not given) | -2.8 | -1.23 | -0.362 | inactive: 0.458 | -0.912 | 1.49 | inactive: -0.68 | -0.624 | inactive: -3.69 | inactive: 0.355 | inactive: 0.433 | -0.0317 | 0.293 | inactive: 1.57 | 0.576 | inactive: -4.29
